18 compounds from patent publication US20250051337A1 (priority 2021, published 2025) can be followed below.

Chains of the proteins cited; added tags and fusions are not shown. Lines headed by an entry give the natural chain unless they say otherwise; changes in a name come on top.
UniProt Q13043: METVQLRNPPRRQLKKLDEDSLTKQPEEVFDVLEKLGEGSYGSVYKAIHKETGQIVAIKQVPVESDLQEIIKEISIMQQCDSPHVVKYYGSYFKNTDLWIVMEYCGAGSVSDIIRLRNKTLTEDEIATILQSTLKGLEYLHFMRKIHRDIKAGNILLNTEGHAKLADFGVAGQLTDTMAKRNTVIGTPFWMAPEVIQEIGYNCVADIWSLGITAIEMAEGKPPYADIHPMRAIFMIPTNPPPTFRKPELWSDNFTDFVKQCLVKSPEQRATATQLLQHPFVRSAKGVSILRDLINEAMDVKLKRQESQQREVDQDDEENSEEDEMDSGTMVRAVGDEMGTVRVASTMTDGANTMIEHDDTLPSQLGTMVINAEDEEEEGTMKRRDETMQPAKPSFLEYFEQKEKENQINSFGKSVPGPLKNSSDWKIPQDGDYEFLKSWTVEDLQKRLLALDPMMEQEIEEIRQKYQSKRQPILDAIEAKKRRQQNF

As usually defined, the IC50 is the midpoint of a concentration-inhibition curve. Low readings indicate inhibition by little substance, high ones a need for much substance. The Ki is the equilibrium dissociation constant of an inhibitor or competing ligand from its target. A high value points to weaker binding.

For assay [1], the target named is T1, STK4 (Homo sapiens (Human), UniProt Q13043). Nature of the assay: ADP-Glo kinase assay, STK4. The format is biochemical. The following applies: 50 μM ATP. The procedure:
The STK3 kinase assay was performed in 5 μL reaction buffer containing 50 ng recombinant human STK3 protein (full length, SignalChem #S24-10G; Richmond, Canada), 250 μg/mL myelin basic protein (Sigma-Aldrich #M1891; St. Louis, MO, USA), and 50 μM ATP (Sigma-Aldrich #A7699). The STK4 kinase assay was performed in 5 μL reaction buffer containing 50 ng recombinant human STK4 protein (full length, SignalChem #S25-10G), 300 μg/mL Axltide (SignalChem #A16-58), and 50 μM ATP. […] Three experiments were performed, each in triplicate.

In assay [2] the target is T1, STK4. Put plainly: NanoBRET intracellular kinase assay, STK4. It counts as cell-based. The conditions noted are these: transfected HEK293 cells, 2 h. The procedure:
Full-length STK3, STK4, and LRRK2 kinase was cloned in-frame with a C-terminal NanoLuc-fusion (Promega: Madison, WI, USA) and the plasmid was transfected into HEK293T cells using FuGENE HD (Promega, E2312). […] After 2 h at 37° C. in a 5% CO2 atmosphere, NanoBRET NanoGlo Substrate+Extra-cellular NanoLuc Inhibitor (Promega, N2540) was added, and filtered luminescence was measured on a PHERAstar plate reader (BMG Labtech; Ortenberg, Germany) equipped with a lumi-nescence filter pair (450 nm BP filter (donor) and 610 nm LP filter (acceptor)).
This assay measured the apparent affinity of test compounds by competitive displacement of the NanoBRET™ tracer, reversibly bound to a NanoLuc® luciferase-kinase fusion in cells. To evaluate potential off-target activity of the inhibitors, the inhibition of LRRK2 in live cells by the STK3/4 inhibitors compounds described herein were measured. […] A 50 nM tracer and these compounds were added to cells and incubated for 2 h.
In general terms: Bioluminescence resonance energy transfer reports proximity on the nanometre scale.

For assay [3], the target named is T1, STK4. Nature of the assay: PhosphoSens CSox-based Sensor Assay, STK4. The format is biochemical. The conditions noted are these: Km ATP, mean n = 2. As to the method: Materials were obtained and prepared according to the assay manufacturer's protocol (Assay Quant Technologies: Marlborough, MA, USA). The 50 μL reaction was initiated by addition of a master mix containing the compounds or vehicle, kinase, and CSox-peptide substrate to a well containing the remaining components. […] Final concentrations were: […] HEPES pH 7.5, 50 μM ATP, 1.0 mM DTT, 0.01% Brij-35, 0.5 mM EGTA, 10 mM MgCl2, 10 μM peptide substrate (AQT0135), and 5.0 nM STK3 (SignalChem #S24-10G) or STK4 (SignalChem #S25-10G) kinases. […] Background-corrected RFU were plotted against time using Prism 8 software. Velocity determinations were calculated for each reaction and plotted versus compound concentration to generate inhibitor curves.
The PhosphoSens® CSox-based Sensor real-time kinetic assay uses a peptide substrate containing an unnatural amino acid and physiological Mg^2+ levels to quantify substrate phosphorylation using fluorescence.

Structures are written as SMILES. Bounds are passed on as bounds.

Consider `Fc1ccccc1-c1c[nH]c2ncnc(N3CCOCC3)c12` [Compound 3, 4-(5-(2-Fluorophenyl)-7H-pyrrolo[2,3-d]pyrimidin-4-yl)morpholine], for which, at STK4 [1], the IC50 is less than 1000 nM.

Regarding `COc1ccccc1-c1c[nH]c2ncnc(N3CCOCC3)c12` [Compound 4, 4-(5-(2-Methoxyphenyl)-7H-pyrrolo[2,3-d]pyrimidin-4-yl)morpholine], on STK4 [1], the IC50 is less than 1000 nM.

Turning to `Cc1cccc(-c2c[nH]c3ncnc(N4CCOCC4)c23)c1` [Compound 5, 4-(5-(m-Tolyl)-7H-pyrrolo[2,3-d]pyrimidin-4-yl)morpholine], the IC50 against STK4 [1] and against STK4 [2] was less than 1000 nM each time.

With `Fc1cccc(-c2c[nH]c3ncnc(N4CCOCC4)c23)c1` [Compound 7, 4-(5-(3-Fluorophenyl)-7H-pyrrolo[2,3-d]pyrimidin-4-yl)morpholine], the IC50 against STK4 [1] and at STK4 [2] was less than 1000 nM in each case.

`COc1cccc(-c2c[nH]c3ncnc(N4CCOCC4)c23)c1` [Compound 8, 4-(5-(3-Methoxyphenyl)-7H-pyrrolo[2,3-d]pyrimidin-4-yl)morpholine]: on STK4 [1], the half-inhibitory concentration (IC50) was less than 1000 nM.

On STK4 [1], `Cc1ccc(-c2c[nH]c3ncnc(N4CCOCC4)c23)cc1` [Compound 9, 4-(5-(p-tolyl)-7H-pyrrolo[2,3-d]pyrimidin-4-yl)morpholine] yielded an IC50 of less than 1000 nM.

`Fc1ccc(-c2c[nH]c3ncnc(N4CCOCC4)c23)cc1` [Compound 10, 4-(5-(4-Fluorophenyl)-7H-pyrrolo[2,3-d]pyrimidin-4-yl)morpholine] displayed an IC50 against STK4 [1] of less than 1000 nM.

`NC(=O)c1cccc(-c2c[nH]c3ncnc(N4CCOCC4)c23)c1` [Compound 11, 3-(4-Morpholino-7H-pyrrolo[2,3-d]pyrimidin-5-yl)benzamide]: the IC50 on STK4 [1] and against STK4 [2] was less than 1000 nM throughout. Also, the Ki at STK4 [3] amounted to 91 nM.

As to `c1csc(-c2c[nH]c3ncnc(N4CCOCC4)c23)c1` [Compound 12, 4-(5-(Thiophen-2-yl)-7H-pyrrolo[2,3-d]pyrimidin-4-yl)morpholine], the IC50 against STK4 [1] was less than 1000 nM.

For the compound `c1coc(-c2c[nH]c3ncnc(N4CCOCC4)c23)c1` [Compound 13, 4-(5-(Furan-2-yl)-7H-pyrrolo[2,3-d]pyrimidin-4-yl)morpholine], the 50% inhibitory concentration (IC50) against STK4 [1] is less than 1000 nM.

Compound `c1nc(N2CCOCC2)c2c(-c3ccoc3)c[nH]c2n1` [Compound 14, 4-(5-(Furan-3-yl)-7H-pyrrolo[2,3-d]pyrimidin-4-yl)morpholine] returned an IC50 against STK4 [1] of less than 1000 nM.

With `Clc1cccc(-c2c[nH]c3ncnc(N4CCCCC4)c23)c1` [Compound 15, 5-(3-Chlorophenyl)-4-(piperidin-1-yl)-7H-pyrrolo[2,3-d]pyrimidine], the IC50 against STK4 [1] and at STK4 [2] was less than 1000 nM throughout.

Regarding `CN(C)c1ncnc2[nH]cc(-c3cccc(Cl)c3)c12` [Compound 17, 5-(3-Chlorophenyl)-N,N-dimethyl-7H-pyrrolo[2,3-d]pyrimidin-4-amine], at STK4 [1], the IC50 is less than 1000 nM.

`Clc1cccc(-c2c[nH]c3ncnc(NCC4CC4)c23)c1` [Compound 18, 5-(3-Chlorophenyl)-N-(cyclopropylmethyl)-7H-pyrrolo[2,3-d]pyrimidin-4-amine] returned an IC50 against STK4 [1] of less than 1000 nM.

`CC1(N)CCN(c2ncnc3[nH]cc(-c4cccc(Cl)c4)c23)CC1` [Compound 102, 1-(5-(3-chlorophenyl)-7H-pyrrolo[2,3-d]pyrimidin-4-yl)-4-methylpiperidin-4-amine] came in with an IC50 at STK4 [1] of less than 1000 nM.

In turn, `CC1(O)CCN(c2ncnc3[nH]cc(-c4cccc(Cl)c4)c23)CC1` [Compound 103, 1-(5-(3-chlorophenyl)-7H-pyrrolo[2,3-d]pyrimidin-4-yl)-4-methylpiperidin-4-ol] yielded a 50% inhibitory concentration (IC50) on STK4 [1] of less than 1000 nM.

Take `CCN(CCO)c1ncnc2[nH]cc(-c3cccc(Cl)c3)c12` [Compound 114, 2-((5-(3-chlorophenyl)-7H-pyrrolo[2,3-d]pyrimidin-4-yl)(ethyl)amino)ethan-1-ol]: the IC50 against STK4 [1] is less than 1000 nM.

Turning to `OCCCNc1ncnc2[nH]cc(-c3cccc(Cl)c3)c12` [Compound 119, 3-((5-(3-chlorophenyl)-7H-pyrrolo[2,3-d]pyrimidin-4-yl)amino)propan-1-ol], the IC50 against STK4 [1] and on STK4 [2] was less than 1000 nM in each case.
